Tests used:
[1] = target: ZIP-MBPMga2 950–1062 (zipped sense-and-response construct, unlabeled wild type) (not stated | baker's yeast) (UniProt P03069); assay: SEC; 100 µg in 100 µl of the purified construct on a Superdex 200 10/300 Increase column (void volume 8.8 ml); construct isolated in OG detergent
[2] = target: ZIP-MBPMga2 950–1062 K983 ATTO488 (FRET donor construct) (not stated | baker's yeast) (UniProt P03069); assay: FRET or BRET; detergent solution; titration with the K969^A acceptor, FRET efficiency against the molar fraction of the acceptor (Supplementary Fig. 2c, d)

Amino acid sequences for entries named in this document (tags omitted). A change or cut given only in a name is not applied to a line headed by its entry.
UniProt P03069: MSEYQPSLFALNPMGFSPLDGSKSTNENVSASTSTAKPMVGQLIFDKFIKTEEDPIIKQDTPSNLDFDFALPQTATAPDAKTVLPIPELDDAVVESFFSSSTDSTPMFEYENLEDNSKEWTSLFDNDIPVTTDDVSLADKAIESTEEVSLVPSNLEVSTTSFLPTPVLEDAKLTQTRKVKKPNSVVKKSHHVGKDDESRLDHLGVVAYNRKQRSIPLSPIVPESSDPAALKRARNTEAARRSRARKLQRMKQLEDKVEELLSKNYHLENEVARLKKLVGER

stoichiometry N [1] | stoichiometry N [2] | Substance
2 |  | ZIP-MBPMga2 950–1062 (zipped sense-and-response construct, unlabeled wild type) (from UniProt P03069 249-281)
 | 2 | ZIP-MBPMga2 950–1062 K969 ATTO590 (FRET acceptor construct) (from UniProt P03069 249-281)
